Experimental data as given in PMC8457121, “From Kinase Inhibitors to Multitarget Ligands as Powerful Drug Leads for Alzheimer's Disease using Protein‐Templated Synthesis” (Angewandte Chemie (International Ed. in English), 2021).

Amino acid sequences for entries named in this document (tags omitted). Residues count along the entry.
UniProt Q5S007, whole entry: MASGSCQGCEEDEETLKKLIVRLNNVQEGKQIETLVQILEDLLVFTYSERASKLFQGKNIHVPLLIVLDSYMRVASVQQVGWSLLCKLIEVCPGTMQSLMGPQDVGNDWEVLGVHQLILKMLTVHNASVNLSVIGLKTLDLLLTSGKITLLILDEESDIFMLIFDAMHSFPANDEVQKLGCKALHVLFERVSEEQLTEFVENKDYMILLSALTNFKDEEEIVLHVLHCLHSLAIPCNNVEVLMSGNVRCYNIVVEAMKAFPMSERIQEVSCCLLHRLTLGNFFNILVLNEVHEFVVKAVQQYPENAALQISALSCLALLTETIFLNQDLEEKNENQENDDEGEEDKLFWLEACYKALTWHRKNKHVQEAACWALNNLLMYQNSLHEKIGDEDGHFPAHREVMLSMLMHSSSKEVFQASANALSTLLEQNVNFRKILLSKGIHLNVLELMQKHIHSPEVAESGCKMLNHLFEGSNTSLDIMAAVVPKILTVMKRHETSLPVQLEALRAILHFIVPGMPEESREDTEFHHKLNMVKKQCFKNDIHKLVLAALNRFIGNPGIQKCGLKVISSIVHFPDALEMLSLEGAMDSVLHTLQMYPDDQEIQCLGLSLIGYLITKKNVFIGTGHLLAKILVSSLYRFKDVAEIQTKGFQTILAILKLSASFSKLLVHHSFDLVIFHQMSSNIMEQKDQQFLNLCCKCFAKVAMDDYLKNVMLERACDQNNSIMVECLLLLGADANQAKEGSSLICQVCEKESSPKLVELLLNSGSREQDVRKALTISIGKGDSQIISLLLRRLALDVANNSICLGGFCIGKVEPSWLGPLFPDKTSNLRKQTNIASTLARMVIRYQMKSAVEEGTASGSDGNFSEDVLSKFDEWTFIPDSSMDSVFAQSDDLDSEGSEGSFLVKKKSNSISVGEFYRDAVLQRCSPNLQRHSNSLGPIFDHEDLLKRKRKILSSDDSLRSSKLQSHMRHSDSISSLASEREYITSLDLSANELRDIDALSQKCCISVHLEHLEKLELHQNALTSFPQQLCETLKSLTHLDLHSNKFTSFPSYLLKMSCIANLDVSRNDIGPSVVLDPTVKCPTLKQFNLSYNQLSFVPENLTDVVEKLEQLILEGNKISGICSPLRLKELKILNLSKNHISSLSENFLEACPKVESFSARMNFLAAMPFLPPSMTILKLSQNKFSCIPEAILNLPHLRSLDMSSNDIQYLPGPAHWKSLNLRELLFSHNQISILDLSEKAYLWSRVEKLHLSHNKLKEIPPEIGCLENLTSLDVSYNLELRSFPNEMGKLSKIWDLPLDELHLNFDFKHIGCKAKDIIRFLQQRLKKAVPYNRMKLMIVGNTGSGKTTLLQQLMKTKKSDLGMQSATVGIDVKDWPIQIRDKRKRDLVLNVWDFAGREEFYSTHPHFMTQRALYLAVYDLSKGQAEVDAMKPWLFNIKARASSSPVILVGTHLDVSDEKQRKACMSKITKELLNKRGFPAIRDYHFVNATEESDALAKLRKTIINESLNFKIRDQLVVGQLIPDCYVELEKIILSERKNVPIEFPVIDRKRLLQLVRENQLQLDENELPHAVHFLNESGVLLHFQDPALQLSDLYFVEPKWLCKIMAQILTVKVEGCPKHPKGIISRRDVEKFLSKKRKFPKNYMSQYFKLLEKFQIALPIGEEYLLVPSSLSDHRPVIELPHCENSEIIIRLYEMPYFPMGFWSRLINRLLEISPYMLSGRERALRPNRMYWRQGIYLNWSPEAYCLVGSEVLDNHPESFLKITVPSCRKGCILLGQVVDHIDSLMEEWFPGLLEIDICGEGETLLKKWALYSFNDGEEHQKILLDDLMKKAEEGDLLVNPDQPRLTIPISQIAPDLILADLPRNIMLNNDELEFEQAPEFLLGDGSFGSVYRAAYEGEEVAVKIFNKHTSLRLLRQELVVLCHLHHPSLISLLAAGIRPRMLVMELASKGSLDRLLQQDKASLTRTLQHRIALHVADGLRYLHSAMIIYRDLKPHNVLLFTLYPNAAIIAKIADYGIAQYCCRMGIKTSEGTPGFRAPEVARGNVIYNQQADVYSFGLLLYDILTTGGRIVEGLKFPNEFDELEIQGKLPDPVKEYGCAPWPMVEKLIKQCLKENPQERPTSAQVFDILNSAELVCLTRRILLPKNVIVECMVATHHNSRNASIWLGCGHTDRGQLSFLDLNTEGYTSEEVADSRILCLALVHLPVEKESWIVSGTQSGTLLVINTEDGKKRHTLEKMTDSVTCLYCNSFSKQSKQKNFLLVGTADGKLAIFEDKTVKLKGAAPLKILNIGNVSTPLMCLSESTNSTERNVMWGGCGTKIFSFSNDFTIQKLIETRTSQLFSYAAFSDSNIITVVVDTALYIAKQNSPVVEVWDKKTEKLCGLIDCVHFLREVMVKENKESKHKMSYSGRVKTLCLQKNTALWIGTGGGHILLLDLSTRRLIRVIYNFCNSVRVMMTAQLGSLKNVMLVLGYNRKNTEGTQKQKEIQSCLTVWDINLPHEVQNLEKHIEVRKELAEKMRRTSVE
UniProt P56817, 46-501 limits assumed: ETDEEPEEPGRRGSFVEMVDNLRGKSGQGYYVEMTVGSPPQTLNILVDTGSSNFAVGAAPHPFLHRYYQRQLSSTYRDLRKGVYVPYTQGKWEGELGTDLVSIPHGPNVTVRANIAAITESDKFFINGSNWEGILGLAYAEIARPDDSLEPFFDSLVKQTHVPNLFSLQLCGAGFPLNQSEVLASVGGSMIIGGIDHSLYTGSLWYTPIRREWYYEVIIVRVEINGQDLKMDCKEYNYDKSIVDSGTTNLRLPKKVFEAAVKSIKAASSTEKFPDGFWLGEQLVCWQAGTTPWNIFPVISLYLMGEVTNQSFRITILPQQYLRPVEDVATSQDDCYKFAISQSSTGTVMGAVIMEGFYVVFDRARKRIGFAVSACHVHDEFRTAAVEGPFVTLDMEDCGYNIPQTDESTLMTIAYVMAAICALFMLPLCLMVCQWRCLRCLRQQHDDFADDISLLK

How the values were obtained:
[1] = biological target: T1, LRRK2 (Homo sapiens, UniProt Q5S007); assay: LRRK2 inhibition enzymatic assay (Adapta, ThermoFisher); type: biochemical; conditions: read-out: LRRK2 IC50
[2] = biological target: BACE1 (Homo sapiens, UniProt P56817); assay: BACE1 enzymatic assay (FRET); type: biochemical; conditions: read-out: BACE1 IC50
[3] = biological target: T1, LRRK2; conditions: read-out: LRRK2 inhibitor IC50; MBC chemical library lead, Figure 5 ref 31, 34, 35, 36; cited from earlier work

- IC50 [1]: 1050 nM
- IC50 [2]: > 20000 nM
Structure (SMILES): O=C(Nc1nc2ccccc2s1)c1ccccc1
- IC50 [3]: 1050 nM

Like-named read-outs stand apart in the source and are kept apart here.
